Test results taken from the supplement of paper PMC12137928.

Tests used:
HCT116 [1] = details: 72 h
Outline: (§1)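 In 1536-well plates, 250 HCT116 cells per well were seeded and left for 5 h to attach. Luminescence from CellTiter-Glo was set against vehicle (0%) and positive control (-100%), and pattern correction was applied. IC50 and maximal efficacy come from four-parameter Hill fitting.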

HCT116 [2] = assay: efficacy (maximum % inhibition of viability vs DMSO); higher = more cytotoxic; details: 72 h
Outline: as §1

COc1cc(Br)c(C[N+]2(CCOCCC3CCC4CC3C4(C)C)CCOCC2)cc1OC (centres undefined) [Pinaverium bromide]
IC50 cell viability (HCT116 [1]; ICRF193 0 nM): 29.1 µM | IC50 cell viability (HCT116 [1]; ICRF193 200 nM): 16.4 µM | efficacy (HCT116 [2]; ICRF193 0 nM): 99.4% | efficacy (HCT116 [2]; ICRF193 200 nM): 108%
